Data taken from patent US8207347B2, “Pyridone derivatives as NK3 antagonists” (H. Lundbeck A/S, priority 2009, dated 2012).

Protein sequences, listed by entry. Tags and fused reporters are not part of them.
UniProt P29371, whole entry: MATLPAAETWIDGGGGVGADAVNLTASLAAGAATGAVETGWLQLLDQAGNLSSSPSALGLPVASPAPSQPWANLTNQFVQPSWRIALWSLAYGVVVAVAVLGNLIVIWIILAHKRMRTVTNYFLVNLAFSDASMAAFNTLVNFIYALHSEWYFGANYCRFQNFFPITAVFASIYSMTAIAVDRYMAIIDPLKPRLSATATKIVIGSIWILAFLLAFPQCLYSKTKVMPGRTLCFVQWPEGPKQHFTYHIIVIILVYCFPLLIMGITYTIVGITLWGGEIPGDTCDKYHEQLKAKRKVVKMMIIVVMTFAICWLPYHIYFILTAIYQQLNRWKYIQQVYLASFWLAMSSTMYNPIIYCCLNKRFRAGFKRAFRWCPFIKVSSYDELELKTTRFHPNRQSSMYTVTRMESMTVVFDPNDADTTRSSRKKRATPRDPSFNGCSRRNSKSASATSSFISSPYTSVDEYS

Molecular target: T1, human NK3 receptor (Homo sapiens, UniProt P29371)
T1 construct: expressed in transfected cells
Experiment: NK3 receptor efficacy and potency assay (Calcium 4 Assay kit, FDSS 7000)
Type: cell-based
Conditions: dose-response curve with NKB in BHK cells expressing human NK3 receptor
Method: BHK cells stably expressing the human NK3 receptor were seeded in 100 μl media in black walled clear-base 96-wells plates (Costar) aiming at a confluency of 95-100% at the day of assay. The assay was performed according to the Calcium 4 Assay kit (Molecular Devices). At the day of the assay, the media was removed and the cells were washed once with the HBSS buffer (Hanks BSS buffer, pH 7.4 containing 20 mM Hepes) before 100 μl of a solution of the calcium assay reagent dissolved in the HBSS buffer containing 2.5 mM probinicid was added to the cells. The plates were incubated for 60 min at 34° C., 10% CO2 before use in the FDSS 7000 for examination of fluorescence. […]
For efficacy and potency evaluation of compounds, these were diluted in HBSS buffer prior to test. For test of agonist activity, 25 μl of the diluted compound solution was added and the plate was analyzed for 5 minutes in the FDSS 7000. […] The plates were subsequently analyzed for 5 minutes before the assay was terminated. The maximal increase in fluorescence over background following each ligand addition was determined. The IC50 value was calculated using sigmoidal variable slope curve fitting, and the cIC50 value was determined using the equation (cIC50=IC50/(1+(EC85/EC50))), where EC85 and EC50 for NKB were determined as described above.

## neurokinin B [NKB]
  EC85 concentration of NKB: ~2 nM
